Antibody variant affinities, Ab-95 light chain, assay 2

Values reported by Engelhart et al. 2022, doi:10.1038/s41597-022-01779-4 (FLAb copy).

Antigen: PDVDLGDISGINAS, a 14-residue peptide of the SARS-CoV-2 spike HR2 region.

Each scFv is VH, three GGGGS repeats, VL, as in the parent Ab-95, and differs from it in the CDRs of the light chain only.
VH: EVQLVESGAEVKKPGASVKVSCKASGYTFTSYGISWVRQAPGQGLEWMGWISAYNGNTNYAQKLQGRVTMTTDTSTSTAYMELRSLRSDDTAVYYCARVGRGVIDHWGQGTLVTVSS
VL: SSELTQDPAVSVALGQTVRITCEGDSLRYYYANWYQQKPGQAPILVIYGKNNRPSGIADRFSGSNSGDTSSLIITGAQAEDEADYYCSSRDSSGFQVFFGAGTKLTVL

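AAYL52 was designed without a model: most single CDR substitutions and a random sample of double and triple ones. The assay is AlphaSeq: two haploid yeast populations carry antibody and antigen on their surface. Binding brings cells together so that they mate, and sequencing counts the barcode pairs among the diploids. Each replicate has its own calibration line, from reference interactions of the BCL2 family. Mating was done three times.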

Variants are written as CDR1, CDR2 and CDR3 of the light chain (limits as in the source). Parent: EGDSLRYYYAN, GKNNRPS, SSRDSSGFQVF.
The read-out is the apparent dissociation constant on a log10 scale (nM): the lower, the stronger.
An entry "ND" has no value in the source: the pair was not observed among the diploids in that replicate. This suggests poor binding but is not conclusive.
For reference, the parent read 2.31 as the reference entry and 2.25 as a member of this library.
Empty control strains, which show no peptide, gave a signal in 28% of pairings with library AAYL52; the median was 3.91 and 95% of these signals were weaker than 2.90. No background was subtracted. Also given: how often the same scFv was detected with the empty control strains, with their mean in brackets.

| # | CDR-L1 | CDR-L2 | CDR-L3 | replicates, log10 nM | control signals |
|---|---|---|---|---|---|
| 1 | EGDSQRYYQAN | WKNNRPS | SSRDSSGFQVF | 4.63 / 4.18 / 4.73 | 2/9 (3.93) |
| 2 | EGDSLRYYYAN | GKNNRLS | SSRDSSGAGVF | 2.87 / 3.45 / ND | 4/9 (3.89) |
| 3 | EGDSLRYYQAN | GKNNRPS | SSRDSSGFQVM | 2.10 / 1.56 / 1.49 | 0/9 |
| 4 | EGDSPRYYYAN | GVNNRQS | SSRDSSGFQVF | 5.39 / ND / ND | 5/9 (4.05) |
| 5 | EGDSLRYLFAN | GKNNRPS | SSRDSSGPQVF | 4.10 / 3.38 / 4.16 | 7/9 (3.76) |
| 6 | EGKSLRYYYAN | GKNNRPM | SSRDWSGFQVF | 2.98 / 2.71 / 3.06 | 2/9 (4.91) |
| 7 | EGDSLRYYYAN | GNNNRPS | SSRDSSDFQVF | 2.24 / 3.14 / 2.92 | 1/9 (2.74) |
| 8 | EGDSLRYYYAN | WKNNRPS | SCRDSSGFEVF | ND / ND / ND | 0/9 |
| 9 | EQDSLRYYYSN | GKNNRPS | SSRDSSGFQVQ | 3.58 / 5.47 / ND | 3/9 (3.77) |
| 10 | EGDSLDYYYAN | GKNNRPS | SIRDSSGFQVC | 2.41 / 2.18 / 2.05 | 6/9 (4.11) |
| 11 | EGDSLRYVYAN | GKNNRPS | SSSRSSGFQVF | 4.14 / 5.21 / 3.44 | 5/9 (3.61) |
| 12 | EGDSLRYYYAN | GKNNRPS | SSRDSMGFQVF | 2.34 / 2.52 / 2.49 | 1/9 (4.23) |
| 13 | EGDTIRYYYAK | GKNNRPS | SSRDSSGFQVF | 2.75 / 2.32 / 2.08 | 2/9 (4.46) |
| 14 | EGDSLRYYYAN | GKNNRIT | SSRDSSGFWVF | ND / ND / ND | 1/9 (4.17) |
| 15 | EGDSLRYYYIP | GKNNRPS | SSRDSSGFQVT | 4.01 / 3.96 / ND | 4/9 (4.05) |
| 16 | EGDSLRYYYAN | GKNYRPS | SSRDYSGFQVA | 3.17 / 3.31 / 2.97 | 0/9 |
| 17 | AGDSLRYYYAN | GKNNRPS | SSRDSHSFQVF | 2.67 / 2.10 / 1.63 | 5/9 (3.72) |
| 18 | EGDSLRYYVAN | GKNNRPS | SFRDPSGFQVF | 3.28 / ND / ND | 1/9 (4.16) |
| 19 | EGQSLRYYYAN | AKNNRPS | SSRDSSGFQRF | ND / 3.46 / ND | 3/9 (3.59) |
| 20 | EHDSLRYYYAT | GKNNRPS | SSRDSKGFQVF | ND / ND / ND | 2/9 (3.72) |
| 21 | EGDSLRYYYAN | GKNNRPS | SERDSSGFQNF | 3.67 / 3.10 / 3.65 | 2/9 (3.20) |
| 22 | EGWSLRYYYAN | GKNNRPS | SSPDTSGFQVF | 3.47 / 3.48 / 3.25 | 4/9 (4.46) |
| 23 | ERDSLRYYYAN | GKNNRLS | SSRDWSGFQVF | ND / ND / ND | 2/9 (3.91) |
| 24 | EGDELRPYYAN | GKNNRNS | SSRDSSGFQVF | 1.79 / 2.08 / 1.70 | 4/9 (4.01) |
| 25 | EGFSLRYYYAN | GDNNRPD | SSRDSSGFQVF | 1.59 / 1.65 / 1.19 | 3/9 (4.36) |
| 26 | EGPSLRQYYAN | GKNNQPS | SSRDSSGFQVF | ND / ND / 2.06 | 0/9 |
| 27 | EGDSLRYYYAN | GQNNRPS | SCRESSGFQVF | 3.21 / 2.59 / 2.42 | 1/9 (2.96) |
| 28 | EGDSLRYYYKN | GKNNRPS | SSRDSSKFQVF | ND / ND / 2.89 | 2/9 (3.70) |
| 29 | EGCSLRYYYAN | GKNFRES | SSRDSSGFQVF | ND / 3.58 / ND | 2/9 (4.23) |
| 30 | EGDSLRYKYAN | GKNNRPS | SSRDGSGFQLF | 1.78 / 1.77 / 1.89 | 3/9 (3.99) |
| 31 | EGDRLRYYYFN | GKNNRPS | SSRTSSGFQVF | ND / 4.48 / 3.30 | 2/9 (3.63) |
| 32 | ECDSLRWYYAN | GKSNRPS | SSRDSSGFQVF | 2.92 / ND / ND | 0/9 |
| 33 | ELDSLRYYAAN | GKNNRPS | SSRDSSGFQVK | 3.17 / 2.41 / 2.02 | 2/9 (3.32) |
| 34 | EPDSLRYYYAM | GKNNRPS | SSRDSSGAQVF | 5.45 / 3.83 / 3.46 | 0/9 |
| 35 | EGDSLRMLYAN | GKNNRPS | SSRDSSGFQVT | 3.26 / 4.57 / ND | 2/9 (4.51) |
| 36 | EGDSLRYYYAN | GKNNRPP | SSYDSQGFQVF | ND / 3.63 / 2.35 | 1/9 (4.78) |
| 37 | EGDSLRYYYAN | GKNNCPS | SPRDSSGTQVF | 3.60 / ND / ND | 1/9 (3.02) |
| 38 | EGDALMYYYAN | GKNNRPS | SSRDTSGFQVF | 3.59 / 2.48 / 2.89 | 2/9 (4.53) |
| 39 | RGDSLRYYYAN | GKKNRPS | SSRDSSGFQVR | ND / ND / 4.42 | 1/9 (4.34) |
| 40 | EGDSLRYYYAN | GKLKRPS | SSDDSSGFQVF | 2.76 / ND / ND | 0/9 |
| 41 | EGDSLRYYYQN | GKNNRPS | SQLDSSGFQVF | 4.23 / 3.75 / ND | 5/9 (3.51) |
| 42 | EGVSLRYYYAN | GKNNRDS | SSRDVSGFQVF | 4.35 / ND / 1.90 | 0/9 |
| 43 | EGDSLMYYYAN | GKNNRPS | SSRDSSKFVVF | 3.36 / 2.98 / 2.37 | 1/9 (3.37) |
| 44 | EFDSLRYYYTN | GKNNRPS | SSRDSSGFQVF | 2.73 / 2.91 / 2.40 | 6/9 (4.21) |
| 45 | EGDSLRYHYAN | GKNNRTS | SSVDSSGFQVF | 1.94 / 1.93 / 1.88 | 3/9 (4.03) |
| 46 | EGDSLRYYYAN | GINNRPS | SSRDSVGFQVQ | 3.76 / ND / ND | 2/9 (3.80) |
| 47 | SGDSLRYYYAN | GKNNRPE | SSPDSSGFQVF | 3.64 / 3.15 / 4.33 | 5/9 (3.57) |
| 48 | EGDSLRYYYAN | GKNFRPS | ISRDSSGFQCF | 3.26 / 3.17 / ND | 1/9 (3.51) |
| 49 | EGDSLRRYYAR | GKNNRPS | SSRDSSGFQVI | ND / ND / ND | 3/9 (3.38) |
| 50 | EGDSLRPYYAN | GHNNRPS | SSRDISGFQVF | 3.07 / 3.51 / ND | 1/9 (2.51) |
| 51 | EGDSLRYYYAN | GKNNRPS | SSRDSNSFQVF | 2.47 / 2.49 / 2.47 | 2/9 (2.98) |

The opening 7 entries, copied out:

CDR-L1,CDR-L2,CDR-L3,"replicates, log10 nM",control signals
EGDSQRYYQAN,WKNNRPS,SSRDSSGFQVF,4.63 / 4.18 / 4.73,2/9 (3.93)
EGDSLRYYYAN,GKNNRLS,SSRDSSGAGVF,2.87 / 3.45 / ND,4/9 (3.89)
EGDSLRYYQAN,GKNNRPS,SSRDSSGFQVM,2.10 / 1.56 / 1.49,0/9
EGDSPRYYYAN,GVNNRQS,SSRDSSGFQVF,5.39 / ND / ND,5/9 (4.05)
EGDSLRYLFAN,GKNNRPS,SSRDSSGPQVF,4.10 / 3.38 / 4.16,7/9 (3.76)
EGKSLRYYYAN,GKNNRPM,SSRDWSGFQVF,2.98 / 2.71 / 3.06,2/9 (4.91)
EGDSLRYYYAN,GNNNRPS,SSRDSSDFQVF,2.24 / 3.14 / 2.92,1/9 (2.74)